Source: patent publication US20250108038A1 (priority 2023, published 2025)

Target: T1, OAT3 (Homo sapiens, UniProt Q8TCC7)
T1 sequence (Q8TCC7 1-542): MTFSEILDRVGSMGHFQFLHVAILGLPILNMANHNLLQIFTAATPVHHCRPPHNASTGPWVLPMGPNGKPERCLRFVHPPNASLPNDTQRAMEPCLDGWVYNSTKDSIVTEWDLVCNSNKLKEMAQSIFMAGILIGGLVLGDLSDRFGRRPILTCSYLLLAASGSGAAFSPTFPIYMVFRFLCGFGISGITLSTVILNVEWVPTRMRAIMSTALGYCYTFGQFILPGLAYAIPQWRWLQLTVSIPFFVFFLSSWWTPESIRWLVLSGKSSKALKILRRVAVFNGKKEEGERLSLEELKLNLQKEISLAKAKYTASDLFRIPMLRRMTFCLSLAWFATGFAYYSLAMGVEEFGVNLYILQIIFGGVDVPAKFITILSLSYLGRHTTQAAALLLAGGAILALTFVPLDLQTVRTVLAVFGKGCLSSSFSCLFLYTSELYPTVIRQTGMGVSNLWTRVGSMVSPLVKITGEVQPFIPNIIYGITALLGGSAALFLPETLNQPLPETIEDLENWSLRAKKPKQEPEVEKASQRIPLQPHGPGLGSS
Assay: Uptake transporter inhibition assay, OAT3 (estrone-3-sulfate)
Conditions: 500.00 μM nominal; E3S; Table 130

Structure (SMILES): CCCN(CCC)S(=O)(=O)c1ccc(C(=O)O)cc1 [Probenecid]
- Relative transporter specific accumulation: 2.73 ± 0.16 % of control
